Results on one molecule are retold here after ChEMBL document CHEMBL1133710 (J Med Chem, 2000).

Chains of the proteins cited; added tags and fusions are not shown.
UniProt Q95136, whole entry: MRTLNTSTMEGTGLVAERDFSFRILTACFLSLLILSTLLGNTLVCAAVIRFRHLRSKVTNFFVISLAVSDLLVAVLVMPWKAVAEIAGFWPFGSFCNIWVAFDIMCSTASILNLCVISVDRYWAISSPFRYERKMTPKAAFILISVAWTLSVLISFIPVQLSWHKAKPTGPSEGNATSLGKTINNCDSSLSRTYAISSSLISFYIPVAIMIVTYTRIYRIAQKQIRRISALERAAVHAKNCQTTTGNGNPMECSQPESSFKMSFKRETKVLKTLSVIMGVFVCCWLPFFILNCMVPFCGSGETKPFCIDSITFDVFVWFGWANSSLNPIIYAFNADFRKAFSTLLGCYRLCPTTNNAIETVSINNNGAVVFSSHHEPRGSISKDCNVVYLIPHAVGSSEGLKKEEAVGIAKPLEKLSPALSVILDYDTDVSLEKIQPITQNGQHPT

Assay [1] addresses T1, D(2) dopamine receptor (Bos taurus, UniProt P20288). As to the kind of experiment: Binding Affinity was tested on high Affinity Site of Bovine dopamine receptor D2. Tested for ability to displace the radioligand [3H]pramipexole.
A further assay concerns the target D(1A) dopamine receptor (Bos taurus, UniProt Q95136). The experiment in a line: Binding Affinity was tested on High Affinity Site of Bovine dopamine receptor D1. Tested for ability to displace the radioligand [3H]-SCH- 23390.
For assay [2], the target named is D(2) dopamine receptor (Bos taurus) (UniProt P20288). The experiment in a line: Binding Affinity was determined for decoupling of the ternary complex of Compound to Bovine dopamine receptor D2. Tested for ability to displace the radioligand [3H]spiperone at the binding site.
The target in assay [3] is T1, D(2) dopamine receptor. As to the kind of experiment: Dissociation constant of compound on one-site model Bovine dopamine receptor D2. Tested for ability to displace the radioligand [3H]spiperone at the binding site.
The target of assay [4] is T1, D(2) dopamine receptor. As to the kind of experiment: Binding Affinity was tested on high Affinity Site of Bovine Dopamine D2 Receptor. Tested for ability to displace the radioligand [3H]-Spiperone.
In assay [5] the target is T1, D(2) dopamine receptor. The experiment in a line: Binding Affinity was tested on low Affinity Site of Bovine dopamine receptor D2. Tested for ability to displace the radioligand [3H]spiperone at the binding site.

pKi: −log10 of the molar value. Some results are limits rather than exact numbers.

On to `C#CC1=CCC(N(CCC)CCC)CC1` (stereo unspecified), for which the pKi (as a rule, the negative decadic logarithm of the Ki, by convention in mol/L) at D(2) dopamine receptor [1] was 7.82; on D(1A) dopamine receptor it was < 4.70; in assay [2], 4.77; at D(2) dopamine receptor [3], 6.12; on D(2) dopamine receptor [4], 7.24; on D(2) dopamine receptor [5], 5.39.
